The results in this text go back to patent publication US7417124B2, “Antibodies specific for phosphorylation sites and screening methods using the same antibodies” (Zeria Pharmaceutical Co., Ltd., priority 2003, dated 2008).

Structures are written as SMILES.

For the assay, the system named is phosphorylation in the linker regions of Smad proteins. Kind of assay: Smad linker region phosphorylation in TGF-β-treated myofibroblasts, immunoprecipitation and immunoblotting with phosphorylation-specific antibodies. The format is cell-based, rat. For orientation: In western blotting, separated proteins are transferred to a membrane and probed.

Turning to `O=[N+]([O-])c1ccc(-c2nc(-c3ccncc3)c(-c3ccc(F)cc3)[nH]2)cc1` [PD169316], the “phosphorylation in the linker regions of Smad proteins” value is “inhibited”.
